{
  "sequences": {"note": "Sequences of proteins named here, by UniProt entry; tags and fusion partners are left off. Residues count along the entry.", "UniProt P10636, 1-412 isoform 7": "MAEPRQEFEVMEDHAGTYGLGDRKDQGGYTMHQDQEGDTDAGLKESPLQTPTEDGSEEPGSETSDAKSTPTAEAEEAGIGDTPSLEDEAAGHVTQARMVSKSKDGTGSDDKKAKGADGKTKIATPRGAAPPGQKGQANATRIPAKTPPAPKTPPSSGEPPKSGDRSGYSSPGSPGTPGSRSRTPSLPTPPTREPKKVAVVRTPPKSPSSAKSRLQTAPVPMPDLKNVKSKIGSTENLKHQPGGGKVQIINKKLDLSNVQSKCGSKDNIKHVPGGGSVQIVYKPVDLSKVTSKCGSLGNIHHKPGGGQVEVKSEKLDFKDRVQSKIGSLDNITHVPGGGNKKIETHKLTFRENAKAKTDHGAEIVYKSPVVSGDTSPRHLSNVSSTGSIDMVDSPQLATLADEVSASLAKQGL", "UniProt P05067, 672-713 limits assumed": "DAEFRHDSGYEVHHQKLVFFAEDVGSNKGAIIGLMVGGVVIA"},
  "source": "paper PMC8113290",
  "about": "“[^11C]MODAG-001—towards a PET tracer targeting α-synuclein aggregates” (European Journal of Nuclear Medicine and Molecular Imaging, 2020)",
  "key": {"[1]": {"biological_target": "human recombinant αSYN fibrils (Homo sapiens, UniProt P37840)", "assay": "Saturation binding assay of [3H]MODAG-001 on recombinant αSYN fibrils", "settings": "tested as the radiolabelled form"}, "[2]": {"biological_target": "hTau46 fibrils (Homo sapiens, UniProt P10636)", "assay": "Saturation binding assay of [3H]MODAG-001 on recombinant hTau46 fibrils", "settings": "tested as the radiolabelled form"}, "[3]": {"tested_on": "human brain sections (cortex) of LBD, PSP, AD and control cases", "assay": "In vitro autoradiography in human brain tissue sections", "settings": "3 nM tracer, tested as the radiolabelled form"}, "[4]": {"biological_target": "recombinant α-synuclein (αSYN) fibrils in mouse brain homogenates (Homo sapiens, UniProt P37840)", "assay": "Sensitivity analysis: saturation binding in mouse brain homogenates spiked with αSYN fibrils", "settings": "tested as the radiolabelled form"}, "[5]": {"tested_on": "Aβ1–42 fibrils", "assay": "Saturation binding assay of [3H]MODAG-001 on Aβ1–42 fibrils", "settings": "tested as the radiolabelled form"}, "[6]": {"biological_target": "Aβ1–42 fibrils (Homo sapiens, UniProt P05067)", "assay": "Saturation binding assay of [3H]MODAG-001 on Aβ1–42 fibrils", "settings": "tested as the radiolabelled form"}},
  "data": [
    {"smiles": "CN(C)c1ccc(-c2cc(-c3ccnc(Br)c3)n[nH]2)cc1", "values": [
      {"measurement": "Kd", "setting": "[1]; αSYN fibrils 15 nM, saturation binding", "result": 0.6, "unit": "nM"},
      {"measurement": "Bmax", "setting": "[1]; αSYN fibrils", "result": "9.7 ± 0.4", "unit": "pmol/nmol"},
      {"measurement": "Kd", "setting": "[2]; hTau46 fibrils 250 nM, saturation binding", "result": 19, "unit": "nM"},
      {"measurement": "Bmax", "setting": "[2]; hTau46 fibrils", "result": "1.5 ± 0.4", "unit": "pmol/nmol"},
      {"measurement": "lower affinity towards hTau46 fibrils compared to αSYN fibrils (selectivity)", "setting": "[2]; hTau46 vs αSYN fibrils", "result": 30, "unit": "fold"},
      {"measurement": "Bmax higher for αSYN fibrils than for hTau46 fibrils", "setting": "[2]; αSYN vs hTau46 fibrils", "result": 7, "unit": "fold"},
      {"measurement": "specific tracer binding, autoradiography", "setting": "[3]; AD case", "result": "167.7 ± 40.0", "unit": "pmol/mg"},
      {"measurement": "specific tracer binding, autoradiography", "setting": "[3]; LBD 1 case", "result": "80.5 ± 8.7", "unit": "pmol/mg"},
      {"measurement": "specific tracer binding, autoradiography", "setting": "[3]; LBD 2 case", "result": "64.4 ± 9.8", "unit": "pmol/mg"},
      {"measurement": "specific tracer binding, autoradiography", "setting": "[3]; PSP case", "result": "79.0 ± 13.3", "unit": "pmol/mg"},
      {"measurement": "specific tracer binding, autoradiography", "setting": "[3]; control case", "result": "64.1 ± 19.1", "unit": "pmol/mg"},
      {"measurement": "limit of detection of αSYN fibrils (αSYN concentration at which specific binding can still be calculated)", "setting": "[4]; 100 μg protein/mL mouse brain homogenate", "result": 5, "unit": "nM"},
      {"measurement": "specific binding (SB)", "setting": "[4]; 500 μg protein/mL homogenate, 5 nM fibrils", "result": "undetectable"},
      {"measurement": "lower affinity towards Aβ1–42 fibrils compared to αSYN fibrils (selectivity)", "setting": "[5]; Aβ1–42 vs αSYN fibrils", "result": 30, "unit": "fold"},
      {"measurement": "Bmax higher for αSYN fibrils than for Aβ1–42 fibrils", "setting": "[5]; αSYN vs Aβ1–42 fibrils", "result": 50, "unit": "fold"},
      {"measurement": "Kd", "setting": "[6]; Aβ1–42 fibrils 1 μM, saturation binding", "result": 20, "unit": "nM"},
      {"measurement": "Bmax", "setting": "[6]; Aβ1–42 fibrils", "result": "0.2 ± 0.1", "unit": "pmol/nmol"}
    ]}
  ]
}
